Columns and labels:
DNA of salmon sperm = conditions: compounds present concomitantly with cisplatin, in vitro; cited from earlier work
[1] = tested on: V79-B310H Chinese hamster cells; conditions: cited from earlier work
cells = conditions: compounds incubated with cells one hour after cisplatin exposure; cited from earlier work
[2] = tested on: cisplatin-induced renal failure; assay: Example 1 case study: amifostine given after cisplatin-induced renal failure; conditions: for overall clinical status (in words) / renal function (in words): amifostine 400 mg iv for 3 days; for renal function (in words): started after renal failure had developed
cisplatin nephrotoxicity = conditions: amifostine given 30 minutes after cisplatin; cited from earlier work
[3] = tested on: paclitaxel neuropathies and arthralgias/myalgias; conditions: pretreatment with amifostine, escalating doses of paclitaxel; cited from earlier work
cisplatin neuropathy = conditions: cited from earlier work
neurotoxicities = assay: Example 4 case study: amifostine in MDS patient with neurotoxicities from CHOP chemotherapy; assay type: in vivo, human
[4] = tested on: severe neurotoxicities of right arm, leg pain; assay: Example 2 case study: amifostine for chemotherapy-induced neurotoxicities (carboplatinum, vinblastine, methotrexate); assay type: in vivo, human
Excerpt: The patient who is a survivor of the concentration camps of World War II, was diagnosed with bladder cancer that had metastized to the lungs. They received 3 cycles carboplatinum, vinblastine and methotrexate. While in the concentration camp, the patient suffered damage to their lower legs which caused them constant pain.

[5] = tested on: neurotoxicities / neuropathy
[6] = cited from earlier work
[7] = 500 mg amifostine over 10 minutes
[8] = paclitaxel 135 mg/m^2 iv day 1, cisplatin 100 mg/m^2 intraperitoneally day 2, before amifostine

NCCCNCCS [WR-1065, S-2-(3-aminopropylamino) ethanethiol]
platination of salmon sperm DNA, co-incubation (DNA of salmon sperm): caused a decrease in the platination
protection against cis-DDP cytotoxicity ([1]; administered before, during and immediately after cisplatin treatment): protects against cytotoxicity
protection during versus immediately following cisplatin exposure [1]: little if any difference in the magnitude of protection
timing of maximum protection ([1]; presence in cell growth medium relative to cisplatin exposure): maximum protection was obtained when WR-1065 was present in the cell growth medium for 30 minutes prior to exposure
protection from cytostatic effect of cisplatin (cells): neither WR-1065 nor WR-2721 (amifostine) could protect cells

NCCCNCCSSCCNCCCN [WR-33278]
platination of salmon sperm DNA, co-incubation (DNA of salmon sperm): caused a decrease in the platination

NCCCNCCSP(=O)(O)O [amifostine, S-2-(3-aminopropylamino)ethyl dihydrogen phosphorothioate]
serum creatinine level following treatment with amifostine (FIG. 1) ([2]; FIG. 1, start about 1.0, maximum about 5.5 mg/dL after cisplatin): about 2.8 mg/dL
creatinine at further amifostine dose after follow-up clinic visit ([2]; about 8 days after second discharge, when amifostine 400 mg iv was given again): 2.5 mg/dL
serum creatinine by hospital day 12 / discharge day 13 ([2]; after 3 days of amifostine 400 mg iv, peak 6.0 mg/dL before amifostine): 2.8 mg/dL
serum creatinine approximately 6 months later ([2]; after final 2-week course of amifostine 400 mg, 5 doses): 2.0 mg/dL
overall clinical status (in words) [2]: improvement in their overall clinical status
renal function (in words) [2]: partial recovery of their renal function
renal function (in words) ([2]; listed as Amifostine): partially reversed the toxic renal effects of cisplatin
overall clinical status (in words) ([2]; listed as Amifostine): overall clinical status improved
tolerability ([2]; amifostine 400 mg per day iv on post-cisplatin days 7, 8, 9): tolerated therapy well, with only mild nausea
serum creatinine on day 3 of amifostine therapy ([2]; patient, amifostine 400 mg per day iv on post-cisplatin days 7, 8, 9, peak 6.0 mg/dL before amifostine): 4.6 mg/dL
renal function during readmission (in words) ([2]; readmission, 5 days, amifostine 400 mg iv on hospital day 2): renal function stabilized
tolerability ([2]; readmission, amifostine 400 mg iv once on hospital day 2, ondansetron 24 mg as needed): tolerated the treatment well
protection from nephrotoxicity (cisplatin nephrotoxicity): did not protect mice at all from nephrotoxicity
platination of salmon sperm DNA, co-incubation (DNA of salmon sperm): caused a decrease in the platination
tolerated paclitaxel dose [3]: allowed both higher single doses and cumulative doses of paclitaxel to be administered without the occurrence of dose limiting neuropathies and arthralgias/myalgias
protection from cytostatic effect of cisplatin (cells): neither WR-1065 nor WR-2721 (amifostine) could protect cells
incidence of cisplatin neuropathies (cisplatin neuropathy; pretreatment with amifostine, prospective evaluation (Mollman 1988)): significantly lower incidence of cisplatin neuropathies
occurrence and severity of cisplatin neuropathy (cisplatin neuropathy; pretreatment, randomized trial cisplatin and cyclophosphamide±amifostine, advanced ovarian cancer (Kemp 1996)): significantly reduce the occurrence and severity of cisplatin neuropathy
general status on continued treatment (neurotoxicities; continues on Ethyol for MDS): doing well
neurotoxicities, patient statement after five weeks (neurotoxicities; person, Ethyol 840 mg Monday, Wednesday, Friday each week, neurotoxicities for eight years after CHOP): neurotoxicities were better since receiving amifostine
leg pain two days after infusion [4, 7]: the pain in their legs was getting better
walking ability two days after infusion [4, 7]: able to walk without their cane
pain reported two days after infusion ([4]; person, 500 mg amifostine in 50 cc saline over 10 minutes): no pain for the first time in months
arm pain after subsequent infusions ([4]; subsequent Ethyol infusions): remained without arm pain
leg pain after subsequent infusions ([4]; subsequent Ethyol infusions): The pain in their legs has improved
analgesic need (Duragesic patches) ([4]; subsequent Ethyol infusions, before: 2 patches of 100 mcg/hr): managing with only one Duragesic Patch
neuropathy one month after termination ([5]; after four amifostine treatments): neuropathy remained stable
tolerability of first infusion ([5]; person, amifostine 970 mg in 50 cc saline over 10 minutes, premedicated with Zofran and Decadron): tolerated this treatment without problems

N.N.[Cl][Pt][Cl] [cisplatin, cis-diamminedichloroplatinum]
maximum serum creatinine level after administration of cisplatin (FIG. 1) ([2]; FIG. 1, starting level about 1.0 mg/dL): about 5.5 mg/dL
BUN by hospital day 5 after chemotherapy [2, 8]: 39 mg/dL
serum creatinine by hospital day 5 after chemotherapy [2, 8]: 4.9 mg/dL
potential permanent loss of normal renal function ([6]; nephrotoxicity produced by drugs such as cisplatin (Kemp 1996)): ≥ 50%
patients with myelosuppression ([6]; patients treated with cisplatin): 25–30%
